# The list shows a part of the results. Potency and affinity values are given separately. Some tests of the compounds listed are not included; inactive here does not mean inactive elsewhere. Active and inactive are the calls of the source.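 The calls were made as follows: active = fold induction of absorbance versus untreated yeast above a set limit, then at least 30% activation at any dose in follow-up; inconclusive = repeats straddling the limit, or above it without dose testing; inactive = fold induction below the set limit.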
# Test: mitochondrial function rescue without frataxin homolog – Friedreich's ataxia, plus single-dose screen, dose response (AID 1465)
# Settings: S. cerevisiae Yfh1-off respiration, WST-1 reduction, 72 h; at 50 µM; active compounds read high
row,SMILES,fold induction
1,O=C(NCC1(N2CCCCC2)CCCCC1)c1cc([N+](=O)[O-])ccc1Cl,inactive: 0.87
2,CCN(CC)CC(C)C(C)OC(=O)C(O)(c1ccccc1)c1ccccc1 (stereo unspecified),inactive: 1.04
3,CC(C)N1C(=O)CC2(CCN(CCOC(=O)C(O)(c3ccccc3)c3ccccc3)CC2)C1=O,inactive: 1.06
4,Cc1ccccc1C(=O)NCC1(N2CCCCC2)CCCCC1,inactive: 1.1
5,CN(C)C1CCCC1OC(=O)C(O)(c1ccccc1)c1ccccc1 (stereo unspecified),inactive: 0.92
6,C=CCN1CCN(CCOC(=O)C(O)(c2ccccc2)c2ccccc2)CC1,inactive: 1.13
7,CCN1CCCC(OC(=O)C2(O)c3ccccc3C=Cc3ccccc32)C1 (stereo unspecified),inactive: 0.99
8,COc1cccc(C(=O)NCC2(N3CCCCC3)CCCCC2)c1,inactive: 0.95
9,O=C(OC1CN2CCC1CC2)C(CO)(c1ccccc1)c1ccccc1 (stereo unspecified),inactive: 0.95
10,COc1ccc(Br)c(C(=O)NCC2(N3CCCCC3)CCCCC2)c1,inactive: 1
11,CN(C)c1cccc(C(=O)NCC2(N(C)C)CCCCC2)c1,inactive: 1.12

# From PubChem BioAssay AID1465 (SRMLSC, 2008)
